The values below come from ChEMBL document CHEMBL1201862, “PubChem BioAssay data set” (2004).

The chains behind the UniProt entries cited, without tags or fusion partners. Where a name states a change or a piece, a line headed by the entry shows the natural chain unless it says otherwise.
UniProt Q932Y6, whole entry: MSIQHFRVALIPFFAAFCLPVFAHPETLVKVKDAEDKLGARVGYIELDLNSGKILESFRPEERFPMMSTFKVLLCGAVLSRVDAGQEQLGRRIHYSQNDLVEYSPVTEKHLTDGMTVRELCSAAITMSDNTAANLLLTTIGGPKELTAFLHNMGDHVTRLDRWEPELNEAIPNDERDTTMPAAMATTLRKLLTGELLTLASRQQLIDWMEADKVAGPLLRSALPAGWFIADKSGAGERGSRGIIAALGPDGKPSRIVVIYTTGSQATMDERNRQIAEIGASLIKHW
UniProt P49759: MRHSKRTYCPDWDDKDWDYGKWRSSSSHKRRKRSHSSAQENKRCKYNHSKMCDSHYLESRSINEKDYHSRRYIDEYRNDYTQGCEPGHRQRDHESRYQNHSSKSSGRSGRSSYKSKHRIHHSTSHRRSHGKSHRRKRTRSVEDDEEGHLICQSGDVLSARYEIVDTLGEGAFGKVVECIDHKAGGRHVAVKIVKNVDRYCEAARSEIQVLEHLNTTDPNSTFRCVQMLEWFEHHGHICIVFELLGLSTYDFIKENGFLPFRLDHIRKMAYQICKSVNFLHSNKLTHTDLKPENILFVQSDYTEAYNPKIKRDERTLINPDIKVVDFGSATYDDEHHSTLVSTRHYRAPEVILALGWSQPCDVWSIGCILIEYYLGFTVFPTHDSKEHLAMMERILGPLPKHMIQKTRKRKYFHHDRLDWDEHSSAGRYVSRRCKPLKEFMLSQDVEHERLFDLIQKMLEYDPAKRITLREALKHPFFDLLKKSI
UniProt P24822: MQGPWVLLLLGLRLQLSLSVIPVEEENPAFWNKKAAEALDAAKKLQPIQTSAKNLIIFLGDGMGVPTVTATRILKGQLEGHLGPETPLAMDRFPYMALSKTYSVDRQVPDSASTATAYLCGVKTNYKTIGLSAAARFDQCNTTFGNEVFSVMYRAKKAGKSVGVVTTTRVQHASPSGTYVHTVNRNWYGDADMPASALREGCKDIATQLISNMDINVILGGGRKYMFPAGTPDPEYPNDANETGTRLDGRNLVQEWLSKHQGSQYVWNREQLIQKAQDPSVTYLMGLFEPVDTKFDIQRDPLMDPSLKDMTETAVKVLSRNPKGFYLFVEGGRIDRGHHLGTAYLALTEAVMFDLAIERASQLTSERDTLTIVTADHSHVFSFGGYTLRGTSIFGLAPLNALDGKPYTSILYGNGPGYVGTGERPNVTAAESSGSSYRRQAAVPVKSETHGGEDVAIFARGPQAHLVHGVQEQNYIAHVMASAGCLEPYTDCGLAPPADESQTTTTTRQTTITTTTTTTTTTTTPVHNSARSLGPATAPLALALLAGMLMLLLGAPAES

“And” between values parts separate entries of the source, which are not always exact repeats. Identical values can stand only once. The source made the active and inactive calls. Bounds are passed on as bounds.

One assay has as its target Beta Lactamase (Pseudomonas aeruginosa, UniProt Q932Y6). Briefly: BLA reporter interference, concentration series – BLA reporter cells, FRET fluorescence, artefact control for TLR9-MyD88 binding inhibitor project, dose response (AID 588341).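 Further: cell based assay in CHO-K1 cells stably expressing beta-lactamase.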 It counts as cell-based.
Assay [1] concerns the target Dual specificity protein kinase CLK1 (Homo sapiens, UniProt P49759). Briefly: inhibition of human CLK1 activity – biochemical, cherry-picked samples, selectivity assay for Dyrk1A inhibitor project, dose response (AID 588811).
The next assay in a line: cells. In kind it is functional.
Assay [2] concerns the target T1, Hepatocyte nuclear factor 4-alpha (Homo sapiens, UniProt P41235).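 Further: biochemical luminescence-based dose-response counterscreen measuring inhibition of HNF4 dimerization, run alongside a screen for blockers of ABHD5–perilipin-5 interaction; split luciferase complementation of HNF4 fusion proteins in cell lysate measuring dimerization.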
T1 sequence (P41235 whole entry): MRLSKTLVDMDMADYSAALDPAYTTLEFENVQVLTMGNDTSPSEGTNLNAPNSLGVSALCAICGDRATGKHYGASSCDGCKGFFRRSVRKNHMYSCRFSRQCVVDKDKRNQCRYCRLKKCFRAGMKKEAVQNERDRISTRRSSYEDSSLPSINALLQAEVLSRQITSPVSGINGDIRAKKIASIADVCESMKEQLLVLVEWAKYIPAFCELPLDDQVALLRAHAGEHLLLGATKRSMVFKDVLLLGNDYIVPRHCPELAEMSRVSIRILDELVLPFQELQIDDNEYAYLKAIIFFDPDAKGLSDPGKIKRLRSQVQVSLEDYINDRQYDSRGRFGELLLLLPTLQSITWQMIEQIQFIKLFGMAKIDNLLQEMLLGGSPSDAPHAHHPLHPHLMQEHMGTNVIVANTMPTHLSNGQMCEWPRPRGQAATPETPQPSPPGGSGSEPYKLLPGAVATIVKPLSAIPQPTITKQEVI
It counts as functional, cell-based.

The nature of assay [3]: blockers of CRF-binding protein–CRF-R2 complex – cell-based, uHTS hits, 384-well, dose response (AID 651639). In kind it is functional, Homo sapiens. Conditions: read-out: IC50_Mean.
The target of assay [4] is T2, Corticotropin-releasing factor receptor 2/Corticotropin-releasing factor-binding protein (Homo sapiens, UniProt P24387+Q13324).
T2 sequence (Q13324 whole entry): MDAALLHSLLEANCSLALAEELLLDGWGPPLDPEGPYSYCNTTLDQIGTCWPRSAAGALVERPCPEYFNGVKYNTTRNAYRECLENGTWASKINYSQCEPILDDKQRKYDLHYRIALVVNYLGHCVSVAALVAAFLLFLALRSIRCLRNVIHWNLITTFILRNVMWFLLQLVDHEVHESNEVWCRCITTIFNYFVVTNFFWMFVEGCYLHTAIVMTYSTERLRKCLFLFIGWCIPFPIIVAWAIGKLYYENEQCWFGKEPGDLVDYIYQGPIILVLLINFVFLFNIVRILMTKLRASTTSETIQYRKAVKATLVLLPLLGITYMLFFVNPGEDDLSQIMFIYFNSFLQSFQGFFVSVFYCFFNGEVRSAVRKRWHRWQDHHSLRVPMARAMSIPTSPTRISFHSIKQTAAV
T2 sequence (P24387 whole entry): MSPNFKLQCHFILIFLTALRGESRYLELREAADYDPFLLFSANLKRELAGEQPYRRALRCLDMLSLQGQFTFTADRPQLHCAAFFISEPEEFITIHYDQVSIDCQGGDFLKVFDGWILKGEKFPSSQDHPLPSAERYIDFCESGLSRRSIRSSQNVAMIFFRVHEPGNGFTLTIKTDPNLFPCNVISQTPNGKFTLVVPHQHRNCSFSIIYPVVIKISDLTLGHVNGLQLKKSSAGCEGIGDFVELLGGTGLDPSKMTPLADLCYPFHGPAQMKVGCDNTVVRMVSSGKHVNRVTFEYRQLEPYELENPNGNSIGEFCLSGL
Briefly: activators of CRF receptor 2 with binding protein – uHTS hits, confirmation (AID 602473). The following applies: read-out: EC50_Mean. It counts as functional.

In assay [5] the target is T2, Corticotropin-releasing factor receptor 2/Corticotropin-releasing factor-binding protein. Briefly: Dose Response confirmation of uHTS hits for small molecule antagonists of the CRF-binding protein and CRF-R2 receptor complex. It counts as functional. Conditions: read-out: IC50_Mean.
For assay [6], the target named is Intestinal-type alkaline phosphatase (Mus musculus, UniProt P24822). Briefly: PubChem AID 488785. In kind it is functional.
In assay [7] the target is T3, Mitogen-activated protein kinase kinase kinase kinase 2 (Homo sapiens, UniProt Q12851).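 Further: measured as one member of a kinome-wide kinase panel, with MAP4K2 as the panel entry.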
T3 sequence (Q12851 whole entry): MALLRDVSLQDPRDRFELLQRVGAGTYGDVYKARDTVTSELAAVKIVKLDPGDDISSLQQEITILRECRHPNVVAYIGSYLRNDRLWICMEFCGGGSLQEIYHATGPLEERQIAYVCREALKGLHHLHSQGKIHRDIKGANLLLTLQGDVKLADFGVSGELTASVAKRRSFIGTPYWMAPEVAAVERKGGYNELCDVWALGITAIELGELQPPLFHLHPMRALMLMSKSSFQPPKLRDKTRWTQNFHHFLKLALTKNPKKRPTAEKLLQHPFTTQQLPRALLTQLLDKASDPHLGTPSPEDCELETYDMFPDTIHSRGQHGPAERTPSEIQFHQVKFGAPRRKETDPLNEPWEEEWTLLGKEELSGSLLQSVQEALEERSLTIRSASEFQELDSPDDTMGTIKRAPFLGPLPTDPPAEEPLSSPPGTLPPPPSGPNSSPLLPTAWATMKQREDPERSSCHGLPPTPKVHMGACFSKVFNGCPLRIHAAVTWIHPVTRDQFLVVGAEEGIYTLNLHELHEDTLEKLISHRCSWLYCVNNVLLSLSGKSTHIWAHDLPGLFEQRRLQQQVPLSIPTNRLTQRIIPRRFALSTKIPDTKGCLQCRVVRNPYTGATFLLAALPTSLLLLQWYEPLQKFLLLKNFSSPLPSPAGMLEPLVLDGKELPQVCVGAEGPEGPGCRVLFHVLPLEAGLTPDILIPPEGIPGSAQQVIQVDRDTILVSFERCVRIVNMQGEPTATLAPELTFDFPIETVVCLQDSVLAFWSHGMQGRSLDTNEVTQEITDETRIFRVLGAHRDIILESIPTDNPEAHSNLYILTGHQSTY
In kind it is functional.

For the compound `O=c1c(Cl)c(Cl)cnn1Cc1nnc(-c2ccccc2Br)o1`, the IC50 on Beta Lactamase was inactive: > 49.8 µM.

The term AC50 denotes the concentration at which the activity in the assay is half-maximal. Take `c1coc(CCNc2ncnc3ccc(-c4ccc5c(c4)OCO5)cc23)c1`: the AC50 in [1] is active: < 0.00195 µM.

For `O=C(Nc1cccnc1)c1ccc([N+](=O)[O-])s1`, the IC50 in the assay “cells” was active: 8.97 µM.

In the case of `CC(=O)Nc1ccc(OCc2cn(CC(=O)c3ccc(O)cc3)nn2)cc1`, the IC50 in assay [2] is active: 3.99 µM.

As to `CCc1nnc(NS(=O)(=O)c2ccc(/N=C/c3c(C)[nH]n(-c4cccc(Cl)c4)c3=O)cc2)s1`, the figures for the IC50 in assay [3] and in assay [5] were inactive: 20 µM and active: < 0.368 µM, respectively. In addition, the EC50 in assay [4] was inactive: > 53 µM.

As to `COc1cc(/C=C/C(=O)CC(=O)/C=C/c2ccc(O)c(OC)c2)ccc1O` [CURCUMIN], in assay [6], the IC50 was active: 18.7 µM and active: 12 µM.

The Ki is a measure of affinity in units of concentration, obtained from inhibition or displacement. For `Cc1cc(Nc2cc(N3CCN(C)CC3)nc(Sc3ccc(NC(=O)C4CC4)cc3)n2)[nH]n1` [TOZASERTIB], the Ki in assay [7] is inactive: > 3.16 µM.
